Here are results for one substance from patent US8143072B2, “System for detecting nanoparticles using modulated surface plasmon resonance” (The University of Toledo, priority 2006, dated 2012).

The series can be described thus: Chemical and storage stability. Particulars: room temperature, stored under a nitrogen atmosphere. It counts as physicochemical.

For “p-[4-(N-(3-Triethoxysilylpropylamino)succinamido)]-benzyl 4,6-O-benzylidene-2-deoxy-2-phthalimido-β-D-glucopyranoside [glucosamine 14]”, the storage stability entry is “stable”.
